This data set deals with C[S+](CC[C@H](N)C(=O)O)C[C@H]1O[C@@H](n2cnc3c(N)ncnc32)[C@H](O)[C@@H]1O. As to the kind of experiment: purified protein. As to conditions: 0.5 mM 10 (FC H), 50 mM HEPES pH 7.5, 30°C.

On to “methyltransferase (Orf8) (Diaporthe amygdali)”, for which the Km (in general, the substrate concentration at which the rate is half of its maximum) came out at 56 ± 6.0 µM and the kcat amounted to 0.043±0.0016 S^−1.

Source of the values: paper PMC3411640, “Molecular Breeding of a Fungus Producing a Precursor Diterpene Suitable for Semi-Synthesis by Dissection of the Biosynthetic Machinery” (PLoS ONE, 2012).
